The record followed here is publication PMC9029089, “1,5-Disubstituted Acylated 2-Amino-4,5-dihydroimidazoles as a New Class of Retinoic Acid Receptor–Related Orphan Receptor (ROR) Inhibitors” (International Journal of Molecular Sciences, 2022).

The target in the assay is T1, RORγ (Mus musculus, UniProt P51450).
T1 construct: mRORγ (Pro-261-end); expressed in transfected cells
T1 sequence (P51450 261-516 limits assumed): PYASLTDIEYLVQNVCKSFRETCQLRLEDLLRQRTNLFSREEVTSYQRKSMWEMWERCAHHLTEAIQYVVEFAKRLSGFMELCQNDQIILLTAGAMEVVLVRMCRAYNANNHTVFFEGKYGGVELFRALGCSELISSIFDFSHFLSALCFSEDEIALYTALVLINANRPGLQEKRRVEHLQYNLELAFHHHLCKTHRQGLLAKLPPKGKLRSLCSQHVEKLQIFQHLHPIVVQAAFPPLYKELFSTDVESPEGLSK
Put plainly: Gal4-RORγ-LBD UAS-luciferase reporter assay in TRex-CHO-K1 cells (doxycycline-stimulated). The settings on record: library 2520, RORγ cells. Format: cell-based.

SMILES strings stand for the structures.

As for `CC(C)C(=O)NC1=NCC(Cc2ccc3ccccc3c2)N1CCC1CC2CCC1C2` (mixture of isomers) [2520.08], the “% Inhibition at 4 μM (N=3)” value is -23.6%.
